The conditions of this data set: topical or ocular. The protocol: Liver microsomal stability assays were conducted at 1 mg per mL liver microsome protein with an NADPH-generating system in 2% NaHCO3 (2.2 mM NADPH, 25.6 mM glucose 6-phosphate, 6 units per mL glucose 6-phosphate dehydrogenase and 3.3 mM MgCl2). Test compounds were prepared as solutions in 20% acetonitrile-water and added to the assay mixture (final assay concentration 5 microgram per mL) and incubated at 37° C. Final concentration of acetonitrile in the assay should be <1%. Aliquots (50 μL) were taken out at times 0, 15, 30, 45, and 60 minutes, and diluted with ice cold acetonitrile (200 μL) to stop the reactions. Samples were centrifuged at 12000 RPM for 10 minutes to precipitate proteins. Supernatants were transferred to microcentrifuge tubes and stored for LC/MS/MS analysis of the degradation half-life of the test compounds.

Regarding “d6-6-O-Methyl-Erythromycin A (d6-clarithromycin) [Example 14]”, the “increase in the degradation half-life as compared to the non-isotopically enriched drug (clarithromycin)” value is reported as 10-400%.

For the origin of these results see patent US20070281894A1, “PREPARATION AND UTILITY OF SUBSTITUTED ERYTHROMYCIN ANALOGS” (Auspex Pharmaceuticals, Inc., priority 2006, published 2007).
